Results reported in ChEMBL document CHEMBL3758136, “Design, synthesis and in vitro activity of phidianidine B derivatives as novel PTP1B inhibitors with specific selectivity” (Bioorg Med Chem Lett, 2016).

Chains of the proteins cited; added tags and fusions are not shown.
UniProt Q06124, whole entry: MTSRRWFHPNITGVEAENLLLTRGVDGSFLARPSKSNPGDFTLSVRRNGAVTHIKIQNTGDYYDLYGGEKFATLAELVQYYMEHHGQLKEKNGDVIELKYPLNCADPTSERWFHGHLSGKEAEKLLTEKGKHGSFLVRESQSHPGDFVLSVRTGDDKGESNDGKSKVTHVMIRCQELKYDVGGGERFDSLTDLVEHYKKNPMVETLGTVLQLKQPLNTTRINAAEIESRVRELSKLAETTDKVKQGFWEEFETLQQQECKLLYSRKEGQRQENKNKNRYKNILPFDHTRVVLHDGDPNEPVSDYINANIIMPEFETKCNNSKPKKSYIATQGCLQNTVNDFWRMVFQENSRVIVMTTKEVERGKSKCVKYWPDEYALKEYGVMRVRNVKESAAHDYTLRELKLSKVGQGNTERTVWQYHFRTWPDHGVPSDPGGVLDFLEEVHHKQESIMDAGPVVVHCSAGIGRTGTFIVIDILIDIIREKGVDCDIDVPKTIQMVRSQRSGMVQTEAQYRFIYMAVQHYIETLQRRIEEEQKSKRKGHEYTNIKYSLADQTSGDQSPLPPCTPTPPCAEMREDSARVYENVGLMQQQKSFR

Target: Tyrosine-protein phosphatase non-receptor type 11 (Homo sapiens, UniProt Q06124)
Assay: Inhibition of human SHP2 as hydrolysis of pNPP after 2 mins

- pIC50: < 3.92
SMILES: Oc1ccc(-c2cccc(-c3noc(Cc4c[nH]c5ccccc45)n3)n2)cc1

pIC50: −log10 of the molar value.
